Earlier results on 1 compound are cited in US5593994A, “Prostaglandin synthase inhibitors” (The DuPont Merck Pharmaceutical Company, priority 1994, dated 1997).

For series [1], the system named is both isoenzymes (prostaglandin G/H synthase, Cox 1 and Cox 2). Conditions: cited from earlier work.
The subject of the next series is Cox-2. Conditions: cited from earlier work.

As to `CS(=O)(=O)c1ccc(-c2cc(Br)sc2-c2ccc(F)cc2)cc1` [DuP 697], the mode of inhibition entry in series [1] is recorded as “competitive toward both isoenzymes”. For the same compound, the time-dependence of inhibition entry with Cox-2 (Cox-2, longer exposure) is “selective time-dependence against Cox-2”. The “tightness / reversibility of binding inhibition” value in the series with Cox-2 (reversed only following enzyme denaturation and organic extraction) is on record as “extremely tight binding inhibition”.
